Measured values: patent publication US10028992B2, “Methods of treating muscular dystrophy” (BOARD OF REGENTS OF THE NEVADA SYSTEM OF HIGHER EDUCATION …, priority 2012, dated 2018)

System: α7 integrin promoter
Assay: muscle cell-based assay: α7βgal+/− myoblasts/myotubes, LacZ reporter, β-galactosidase cleavage of FDG
Parameters: species or system mouse

Compound: O=C(NCC1(N2CCOCC2)CCCCC1)c1cc(Br)ccc1Cl
- Score (Table 12 compound data): 42
- Fit Curve Class (curve class number, key not given): 2.2
- Fit HillSlope (curve fit): 0.8
- Fit LogAC50 (given as log AC50 (negative values)): −5.05

Some compounds may have been tested in ways that are not shown here.
